Earlier results, collected in paper PMC7215941.
pKd: −log10 of the molar value.

Protein sequences, listed by entry. Tags and fused reporters are not part of them. Residues count along the entry.
UniProt P42081, 24-247: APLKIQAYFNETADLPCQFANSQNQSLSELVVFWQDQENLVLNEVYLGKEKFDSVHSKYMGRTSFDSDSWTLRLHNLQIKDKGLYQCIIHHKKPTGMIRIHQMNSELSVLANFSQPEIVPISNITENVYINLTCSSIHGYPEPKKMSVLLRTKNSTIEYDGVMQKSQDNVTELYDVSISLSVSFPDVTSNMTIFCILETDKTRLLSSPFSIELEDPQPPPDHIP

Experiments:
CD86 (Homo sapiens) = CD86 (Homo sapiens) (UniProt P42081)
CD80 (Homo sapiens) = CD80 (Homo sapiens) (UniProt P33681)

With CTLA4 (from UniProt P16410) as the substance, how does the pKd (CD86 (Homo sapiens)) read?
Its pKd is 7.92.

And the pKd (CD80 (Homo sapiens))?
The pKd was 7.92.
